kcat/Km, Km and kcat data for 1 compound are collected here from ChEMBL document CHEMBL1629653, “CMY-31 and CMY-36 cephalosporinases encoded by ColE1-like plasmids” (Antimicrob Agents Chemother, 2009).

As usually defined, the kcat/Km is the second-order rate constant that governs catalysis at low substrate concentration. What is called Km is the substrate concentration at which the rate is half of its maximum. The term kcat denotes the maximal rate divided by the concentration of active sites.

Test [1] can be described thus: Ratio of Kcat to Km of CMY-2 by spectrophotometry. A digest of the protocol: (§1)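 CMY β-lactamases purified from sonicated, ultracentrifuge-clarified extracts of E. coli DH5α clones (pB-cmy36, pB-cmy2) by Q- then S-Sepharose ion exchange (>90% pure by SDS-PAGE); steady-state hydrolysis kinetics measured spectrophotometrically, CMY-2 run in parallel.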
The nature of test [2]: Activity of CMY-2 by spectrophotometry. The procedure, abridged:
as §1

Regarding `CC(=O)OCC1=C(C(=O)O)N2C(=O)[C@@H](NC(=O)Cc3cccs3)[C@H]2SC1`, in test [1], the kcat/Km stood at 3.2e+07 M⁻¹ s⁻¹. Moreover, in test [2], the Km amounted to 5 µM and the kcat amounted to 160 s⁻¹.
